Consider four molecules from PubChem BioAssay AID492997 (Johns Hopkins Ion Channel Center, 2010).

SMILES strings stand for the structures. Only a part is listed here, and it is no random draw. Active and inactive are the calls of the source.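 How the source made its calls: active means thallium signal drop beyond 5 SD of the untreated control mean, on both duplicate plates; inactive means the rest.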

The nature of the assay: thallium flux in non-induced HEK293 cells, confirmation, counter-screen for KCNK9 inhibitor project, cell-based, second counter screen, non-induced KCNK9-HEK293 (AID 492997).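 Further: plate controls were buffer only IC0 wells for no effect and SID17386958 at its maximal inhibitory level for full effect.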 Particulars: non-induced KCNK9-HEK293, FluxOR thallium flux; at 10 µM; active compounds read high. In general terms: Counterscreens check selectivity or assay interference.
Consider `CC(C)(C)OC(=O)N1CCC(N(C(=O)c2ccccc2)c2ccc(Cl)cc2)CC1`, for which the inhibition (as a rule, how much of the control response was suppressed) was active: 33%.
As for `COc1cccc(C(=O)N(c2cc(C)cc(C)c2)C2CCN(C(=O)OC(C)(C)C)CC2)c1`, the inhibition was active: 33.5%.
Regarding `Cc1cc(C)cc(N(C(=O)c2ccccc2)C2CCN(C(=O)OC(C)(C)C)CC2)c1`, the inhibition is active: 29.5%.
Next, `CC(C)(C)OC(=O)N1CCC(N(C(=O)c2ccccc2)c2ccc(F)cc2)CC1`: active: 30%.
